The values below are quoted from earlier work in patent US20180305370A1 (ORPHOMED, INC., priority 2015, published 2018).

The target in the data set is δ opioid receptor (Homo sapiens, UniProt P41143). The note with it: cited from earlier work.

For the molecule `CO[C@]12CC[C@@]3(C[C@@H]1[C@](C)(O)C(C)(C)C)[C@H]1Cc4ccc(O)c5c4[C@@]3(CCN1CC1CC1)[C@H]2O5` [Buprenorphine, buprenorphine], the Activity entry is “Antagonist”.
